# Laboratory results as given in patent US6472408B1, “Dimeric compounds” (priority 2000, dated 2002).
# Chains of the proteins cited; added tags and fusions are not shown. Residues count along the entry.
# UniProt P37136, 32-614 limits assumed: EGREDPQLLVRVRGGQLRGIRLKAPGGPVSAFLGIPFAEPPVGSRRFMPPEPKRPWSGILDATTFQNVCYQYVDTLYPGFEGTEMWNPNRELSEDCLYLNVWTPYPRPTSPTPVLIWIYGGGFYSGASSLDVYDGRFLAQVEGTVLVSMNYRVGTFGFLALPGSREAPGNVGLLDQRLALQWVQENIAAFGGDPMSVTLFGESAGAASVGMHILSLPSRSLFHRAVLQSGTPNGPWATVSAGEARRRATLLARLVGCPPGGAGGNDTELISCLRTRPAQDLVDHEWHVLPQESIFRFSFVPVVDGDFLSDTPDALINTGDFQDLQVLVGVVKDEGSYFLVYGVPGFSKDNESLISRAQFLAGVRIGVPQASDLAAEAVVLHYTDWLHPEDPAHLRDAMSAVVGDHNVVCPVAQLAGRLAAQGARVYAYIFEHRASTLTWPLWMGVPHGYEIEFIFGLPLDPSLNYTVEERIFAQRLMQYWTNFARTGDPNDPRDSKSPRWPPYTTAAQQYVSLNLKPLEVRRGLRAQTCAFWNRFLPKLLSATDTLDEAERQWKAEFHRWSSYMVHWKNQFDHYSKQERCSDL
# Target: AChE (Rattus norvegicus, UniProt P37136)
# Conditions: tested form: 2 fumarate, 1.5H2O; for IC50: read-out: AchE IC50
SMILES,IC50 [µM],Selectivity for AChE
CC1(C)Cc2[nH]c(=O)ccc2C(NCCCCCCCCNC2CC(C)(C)Cc3[nH]c(=O)ccc32)C1 (racemic),22.3,4
Cn1c2c(ccc1=O)C(NCCCCCCCCCCCCNC1CCCc3c1ccc(=O)n3C)CCC2 (racemic),0.355,210
